Results: patent US8791131B2, “Imidazo[1,5]naphthyridine compounds, their pharmaceutical use and compositions” (Pfizer Inc., priority 2008, dated 2014)

Protein sequences, listed by entry. Tags and fused reporters are not part of them.
UniProt P42337, whole entry: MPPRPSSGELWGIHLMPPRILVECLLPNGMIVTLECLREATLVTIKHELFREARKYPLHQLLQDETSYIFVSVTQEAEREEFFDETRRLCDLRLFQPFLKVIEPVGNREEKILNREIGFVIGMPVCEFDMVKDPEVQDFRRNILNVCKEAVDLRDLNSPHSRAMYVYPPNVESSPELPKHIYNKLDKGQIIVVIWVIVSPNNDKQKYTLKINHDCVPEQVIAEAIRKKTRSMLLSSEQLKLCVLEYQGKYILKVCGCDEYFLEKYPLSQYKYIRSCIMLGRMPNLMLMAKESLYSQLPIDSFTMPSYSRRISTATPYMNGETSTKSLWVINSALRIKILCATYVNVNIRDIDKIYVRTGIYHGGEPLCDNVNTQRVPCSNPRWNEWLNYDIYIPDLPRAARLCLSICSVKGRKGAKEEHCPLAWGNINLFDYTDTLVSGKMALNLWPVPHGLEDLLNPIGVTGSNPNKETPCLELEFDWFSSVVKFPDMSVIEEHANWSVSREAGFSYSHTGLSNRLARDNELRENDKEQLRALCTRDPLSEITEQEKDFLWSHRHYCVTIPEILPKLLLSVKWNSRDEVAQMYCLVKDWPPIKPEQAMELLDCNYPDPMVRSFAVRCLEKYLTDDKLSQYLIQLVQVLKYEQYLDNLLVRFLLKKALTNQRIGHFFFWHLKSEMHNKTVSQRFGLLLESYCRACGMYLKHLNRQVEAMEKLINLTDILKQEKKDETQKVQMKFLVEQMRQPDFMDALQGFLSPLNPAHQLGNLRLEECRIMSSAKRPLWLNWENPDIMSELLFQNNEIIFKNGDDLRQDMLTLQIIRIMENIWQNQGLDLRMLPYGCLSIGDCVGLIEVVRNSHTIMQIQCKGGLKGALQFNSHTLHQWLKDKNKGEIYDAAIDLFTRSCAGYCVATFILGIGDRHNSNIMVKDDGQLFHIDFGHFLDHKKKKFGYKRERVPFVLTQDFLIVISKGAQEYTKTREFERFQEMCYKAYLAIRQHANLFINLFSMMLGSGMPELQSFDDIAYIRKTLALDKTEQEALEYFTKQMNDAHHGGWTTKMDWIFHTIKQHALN

Molecular target: PI3-Kα (Mus musculus (Mouse), UniProt P42337)
Assay: PI3-Kα biochemical assay (in vitro kinase assay, fluorescence polarization);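 note: Insect-cell-expressed mouse p110/p85 complex converting PI(4,5)P2, product PI(3,4,5)P3 detected by displacing TAMRA-tagged PI(3,4,5)P3 from Grip1 PH domain, lower polarization means more product, room temperature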
Settings: Ki calculated from IC50, [ATP]=30 uM, Km=25 uM

In order of falling “PI3Ka Ki” value:
1. CN1CCC(n2c(=O)n(C)c3cnc4ccc(-c5ccc(N(C)C)nc5)nc4c32)CC1 [Compound 207, 8-[6-(dimethylamino)pyridin-3-yl]-3-methyl-1-(1-methylpiperidin-4-yl)-1,3-dihydro-2H-imidazo[4,5-c][1,5]naphthyridin-2-one]  0.0267 µM
2. CNC(=O)N1CCC(n2c(=O)n(C)c3cnc4ccc(-c5cnn(C)c5)nc4c32)CC1 [Compound 217, N-methyl-4-[3-methyl-8-(1-methyl-1H-pyrazol-4-yl)-2-oxo-2,3-dihydro-1H-imidazo[4,5-c][1,5]naphthyridin-1-yl]piperidine-1-carboxamide]  0.0262 µM
3. COc1ccc(-c2ccc3ncc4c(c3n2)n(C2CCN(C(=O)CO)CC2)c(=O)n4C)cc1 [Compound 273, 1-(1-glycoloylpiperidin-4-yl)-8-(4-methoxyphenyl)-3-methyl-1,3-dihydro-2H-imidazo[4,5-c][1,5]naphthyridin-2-one]  0.00194 µM
4. COc1ncc(-c2ccc3ncc4c(c3n2)n([C@H]2CC[C@H](O)CC2)c(=O)n4C)cn1 [Compound 169, 1-(trans-4-hydroxycyclohexyl)-8-(2-methoxypyrimidin-5-yl)-3-methyl-1,3-dihydro-2H-imidazo[4,5-c][1,5]naphthyridin-2-one]  0.000974 µM

Molecular target: mTOR (Homo sapiens (Human), UniProt P42345)
Assay: not given
Settings: not given

In order of rising Ki:
1. Cn1c(=O)n([C@H]2CC[C@H](O)CC2)c2c3nc(-c4cnc5[nH]ncc5c4)ccc3ncc21 [Compound 268, 1-(trans-4-hydroxycyclohexyl)-3-methyl-8-(1H-pyrazolo[3,4-b]pyridin-5-yl)-1,3-dihydro-2H-imidazo[4,5-c][1,5]naphthyridin-2-one]  0.117 nM
2. CNC(=O)Nc1ccc(-c2ccc3ncc4c(c3n2)n(C2CCN(C(=O)[C@H](C)O)CC2)c(=O)n4C)cc1 [Compound 244, 1-[4-(1-{1-[(2S)-2-hydroxypropanoyl]piperidin-4-yl}-3-methyl-2-oxo-2,3-dihydro-1H-imidazo[4,5-c][1,5]naphthyridin-8-yl)phenyl]-3-methylurea]  1.78 nM
3. COc1ccc(-c2ccc3ncc4c(c3n2)n(C2CCN(C(=O)[C@H](C)O)CC2)c(=O)n4C)cc1 [Compound 272, 1-{1-[(2S)-2-hydroxypropanoyl]piperidin-4-yl}-8-(4-methoxyphenyl)-3-methyl-1,3-dihydro-2H-imidazo[4,5-c][1,5]naphthyridin-2-one]  1.94 nM
4. CC(=O)N1CCC(n2c(=O)n(C)c3cnc4ccc(-c5cccc(-n6cccn6)c5)nc4c32)CC1 [Compound 247, 1-(1-acetylpiperidin-4-yl)-3-methyl-8-[3-(1H-pyrazol-1-yl)phenyl]-1,3-dihydro-2H-imidazo[4,5-c][1,5]naphthyridin-2-one]  4.82 nM
5. CN(C)c1ccc(-c2ccc3ncc4c(c3n2)n(C2CCN(C(=O)C(C)(C)O)CC2)c(=O)n4C)cn1 [Compound 209, 8-[6-(dimethylamino)pyridin-3-yl]-1-[1-(2-hydroxy-2-methylpropanoyl)piperidin-4-yl]-3-methyl-1,3-dihydro-2H-imidazo[4,5-c][1,5]naphthyridin-2-one]  6.1 nM
6. COc1ncc(-c2ccc3ncc4c(c3n2)n(C2CCN(C(=O)CN(C)C)CC2)c(=O)n4C)cn1 [Compound 183, 1-[1-(N,N-dimethylglycyl)piperidin-4-yl]-8-(2-methoxypyrimidin-5-yl)-3-methyl-1,3-dihydro-2H-imidazo[4,5-c][1,5]naphthyridin-2-one]  8.96 nM
7. C[C@H](CO)n1c(=O)n(C)c2cnc3ccc(-c4cnc5ccccc5c4)nc3c21 [Compound 234, 1-[(1R)-2-hydroxy-1-methylethyl]-3-methyl-8-quinolin-3-yl-1,3-dihydro-2H-imidazo[4,5-c][1,5]naphthyridin-2-one]  9.63 nM
